# In PubChem BioAssay AID504423 (Broad Institute, 2011):
# The list shows a part of the results, in another mix than the full data. Activity calls are given as the source filed them.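 Rule for the calls: active = highest replicate inhibition at or above 60% at 9 µM, even if other replicates fall short; inactive = all replicates below 60% inhibition.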
# Test system: Kaposi's sarcoma herpesvirus LANA C-terminal domain (residues 932-1162) DNA binding
# Experiment: inhibitors of KSHV C-LANA binding to DNA, primary screen, biochemical, fluorescence polarization, FAM-LBS DNA, MBP-C-LANA, single point (AID 504423);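 note: 0% = neutral control wells and 100% = 4 µM acridine orange control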
# Details: at 9 µM, stronger effect = higher value
row,Structure (SMILES),inhibition
1,CCC(=O)N(c1ccccc1)C1(COC)CCN(CCn2nnn(CC)c2=O)CC1,inactive: -1.8%
2,CCC(=O)N(c1ccccc1)C1(COC)CCN(CCc2cccs2)CC1,inactive: -1.04%
